Source: patent publication US12383511B2, “Osteogenic agents and uses thereof” (GoldPorp Pharma Limited, priority 2022, dated 2025)

System: MC3T3-E1 osteoblast
Test: mRNA expression of osteogenesis-related molecules by real-time PCR
Format: cell-based
Conditions: BMP2 30 ng/ml, ASC 400 μM + β-GP 5 mM, F1 5 μM, F4 5 μM, relative to DMSO control, normalized to GAPDH

For “BMP2: Bone morphogenetic protein 2, prototypical osteoblastic differentiation agent”, which “AFT6 mRNA expression” value (D 2) is on record?
The value was 1.7 fold.

And the “ALP mRNA expression” value (D 2)?
The value was 4.2 fold.

What about the “ATF3 mRNA expression” value (D 2) of the same substance?
Its value is 0.8 fold.

What about the “Axin2 mRNA expression” value (D 2) of the same substance?
Its value is 1.9 fold.

And the “BMP2 mRNA expression” value (D 2)?
Its value is 2.7 fold.

And the “BMP7 mRNA expression” value (D 2)?
The value was 2.8 fold.

And the “BSP mRNA expression” value (D 2)?
The value was 2.1 fold.

And the “COL1A1 mRNA expression” value (D 2)?
The value was 1.4 fold.

What about the “Fzd1 mRNA expression” value (D 2) of the same substance?
Its value is 6.3 fold.

And the “Fzd2 mRNA expression” value (D 2)?
The value was 1.3 fold.

And the “Fzd5 mRNA expression” value (D 2)?
The value was 1.9 fold.

What about the “LRP5 mRNA expression” value (D 2) of the same substance?
Its value is 1.0 fold.

And the “OCN mRNA expression” value (D 2)?
The value was 13.2 fold.

What about the “OPN mRNA expression” value (D 2) of the same substance?
The value was 0.8 fold.

What about the “OSN mRNA expression” value (D 2) of the same substance?
The value was 1.5 fold.

And the “OSX mRNA expression” value (D 2)?
Its value is 3.1 fold.

And the “Runx2 mRNA expression” value (D 2)?
Its value is 3.0 fold.

And the “VDR mRNA expression” value (D 2)?
The value was 1.4 fold.

And the “Wnt3A mRNA expression” value (D 2)?
The value was 2.4 fold.

What about the “Wnt5A mRNA expression” value (D 2) of the same substance?
The value was 1.6 fold.

And the “Wnt7B mRNA expression” value (D 2)?
The value was 1.5 fold.

What about the “Wnt11 mRNA expression” value (D 2) of the same substance?
Its value is 3.0 fold.

What about the “AFT6 mRNA expression” value (D 4) of the same substance?
Its value is 2.1 fold.

What about the “ALP mRNA expression” value (D 4) of the same substance?
The value was 2.6 fold.

What about the “ATF3 mRNA expression” value (D 4) of the same substance?
Its value is 0.7 fold.

And the “Axin2 mRNA expression” value (D 4)?
The value was 3.3 fold.

What about the “BMP2 mRNA expression” value (D 4) of the same substance?
Its value is 0.9 fold.

What about the “BMP7 mRNA expression” value (D 4) of the same substance?
The value was 1.4 fold.

And the “BSP mRNA expression” value (D 4)?
Its value is 2.0 fold.

What about the “COL1A1 mRNA expression” value (D 4) of the same substance?
The value was 1.2 fold.

And the “Fzd1 mRNA expression” value (D 4)?
Its value is 4.4 fold.

And the “Fzd2 mRNA expression” value (D 4)?
The value was 1.1 fold.

What about the “Fzd5 mRNA expression” value (D 4) of the same substance?
The value was 1.4 fold.

And the “LRP5 mRNA expression” value (D 4)?
The value was 0.9 fold.

What about the “OCN mRNA expression” value (D 4) of the same substance?
The value was 4.8 fold.

And the “OPN mRNA expression” value (D 4)?
The value was 1.0 fold.

What about the “OSN mRNA expression” value (D 4) of the same substance?
Its value is 1.9 fold.

What about the “OSX mRNA expression” value (D 4) of the same substance?
The value was 1.9 fold.

And the “Runx2 mRNA expression” value (D 4)?
The value was 2.0 fold.

What about the “VDR mRNA expression” value (D 4) of the same substance?
Its value is 1.3 fold.

And the “Wnt3A mRNA expression” value (D 4)?
The value was 6.3 fold.

And the “Wnt5A mRNA expression” value (D 4)?
Its value is 1.0 fold.

And the “Wnt7B mRNA expression” value (D 4)?
The value was 1.4 fold.

And the “Wnt11 mRNA expression” value (D 4)?
Its value is 1.9 fold.
